The values that follow are results of earlier work, collected in EP0117302A2, “Phenothiazine derivatives” (THE WELLCOME FOUNDATION LIMITED, priority 1982, dated 1984).

Marks after values point to notes of the source that are not given here.

This data set relates to histamine. Particulars: literature value (R.B. Barlow, Introduction to Chemical Pharmacology, 1964); 60 min; cited from earlier work.

On to `CC(CN1c2ccccc2Sc2ccccc21)N(C)C` (stereo not shown) [Promethazine, 10-(2-dimethylaminopropyl)phenothiazine], for which the pA2 is on record as 8.9*.
